# Results as given in patent EP1246824B1, “CARBOXAMIDE DIAZEPIN DERIVATIVES, PREPARATION METHOD, USE AS MEDICINES, PHARMACEUTICAL COMPOSITIONS AND USE THEREOF” (Aventis Pharma S.A., priority 1999, dated 2001).
# By UniProt entry, the sequences of proteins in these tests, tags left out. Residues count along the entry.
# UniProt P43235, 115-329 limits assumed: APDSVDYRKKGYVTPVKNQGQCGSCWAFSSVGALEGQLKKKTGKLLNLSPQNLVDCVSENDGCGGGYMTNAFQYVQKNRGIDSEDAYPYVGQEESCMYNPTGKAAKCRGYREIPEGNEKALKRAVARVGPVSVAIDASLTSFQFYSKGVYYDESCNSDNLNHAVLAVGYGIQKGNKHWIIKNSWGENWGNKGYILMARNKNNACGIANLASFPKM
# UniProt P00784, 134-345 limits assumed: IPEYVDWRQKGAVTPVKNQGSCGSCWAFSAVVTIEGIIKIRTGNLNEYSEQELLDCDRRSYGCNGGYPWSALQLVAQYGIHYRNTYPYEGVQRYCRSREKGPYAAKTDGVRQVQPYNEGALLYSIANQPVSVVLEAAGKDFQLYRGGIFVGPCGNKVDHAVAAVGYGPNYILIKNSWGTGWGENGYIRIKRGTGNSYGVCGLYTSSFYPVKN
# What was measured:
# Conditions in all cases: percentage printed in parentheses after the value 20; not explained, presumably % inhibition at 20 µM
# Cathepsine B = Cathepsine B (Homo sapiens, UniProt P07858); experiment: Inhibition of Cathepsine B (fluorogenic substrate Z-arg-arg-AMC)
# Description: (§1) Les produits à tester (10 mM) sont dilués à 1 mM en DMSO et repartis dans des plaques 96 puits polystyrène Nunc à raison de 2 µl par puits. La colonne 12 de la plaque est réservée pour les contrôles et reçoit donc […] de DMSO (sans produits) par puits. Les plaques sont conservées à -80°C et décongelées le jour de l'expérience.
# (§2) Les produits sont dilués à 50 µM par addition de 38 µl de tampon réaction : acétate de sodium 100 mM, EDTA 5 mM, DTT 1 mM pH 5,5. L'addition ainsi que tous les pipetages suivant sont réalisés par un pipeteur 96 cônes CybiWell. Après mélange des solutions, chaque produit est transféré dans 2 puits (duplicates) d'une plaque 384 puits noire Greiner à raison de 10 µl par puits. On peut donc tester 2 plaques 96 dans une plaque 384.
# (§3) Une solution de substrat à 50 µM, Z-Val-arg-AMC (Calbiochem), est préparée dans le tampon réaction . Le substrat, est ensuite distribué dans tous les puits de la plaque 384 (20 µl par puits).
# (§4) Une solution de Cathepsine K à 12,5 ng/ml est préparée dans le tampon réaction et distribuée dans tous les puits de la plaque 384 (20 µl par puits) exceptés les 16 puits servant de contrôles 100 % d'inhibition (colonne 23 et 24, lignes I à P) qui recevront 20 µl de tampon sans enzyme. Les contrôles […] d'inhibition sont réalisés dans les colonnes 23 et 24, lignes A à H qui ne contiennent pas de produits.
# (§5) Les plaques sont ensuite incubées 2H à température ambiante, puis lues sur Fluoroskan (Labsystems) : excitation 390 nm; émission 460 nm
# (§6) Les concentrations finales de chacun des réactifs sont : Produits 10 µM, Substrat 20 µM, enzyme 5 ng/ml.
# (§7) Les % d'inhibition pour chacun des produits sont calculés en utilisant les points à 0 et 100 % d'inhibition de chaque plaque comme références. Les produits présentant une inhibition significative sont ensuite retestés sur une gamme de concentration allant de 50 à 0,5µM pour déterminer une IC50.
# Etude de l'inhibition de Cathepsine B: […]
# Cathepsine K = Cathepsine K (Homo sapiens, UniProt P43235); experiment: Inhibition of Cathepsine K (fluorogenic substrate Z-Val-arg-AMC)
# Description: Etude de l'inhibition de Cathepsine K :
# as §1, §2, §3, §4, §5, §6, §7
# Papain = Papain (Carica papaya, UniProt P00784); experiment: Inhibition of Papain (protocol as for Cathepsine K)
# Description: as §1, §2, §3
# as §4, with “produits. […]” for “produits.”
"IC50 µM Cathepsin B, percentage in parentheses (Cathepsine B)","IC50 µM Cathepsin K, percentage in parentheses (Cathepsine K)",SMILES,"IC50 µM Papain, percentage in parentheses (Papain)"
20(20%),,CC(C)(C)Oc1ccc(C[C@H](NC(=O)[C@@H]2CCCN3C(=O)CC[C@H](NS(=O)(=O)c4ccc5ccccc5c4)C(=O)N23)C(=O)CSc2nc3ccccc3s2)cc1,
20(20%),20(20%),CC(C)(C)Oc1ccc(C[C@H](NC(=O)[C@@H]2CCCN3C(=O)CC[C@H](NS(=O)(=O)c4ccc5ccccc5c4)C(=O)N23)C(=O)CSc2nnnn2-c2ccccc2)cc1,
,20 (20%),CC(C)(C)Oc1ccc(C[C@H](NC(=O)[C@@H]2CCCN3C(=O)CC[C@H](NC(=O)NCCc4cccs4)C(=O)N23)C(=O)CSc2nc3ccccc3s2)cc1,

SMILES,"IC50 µM Cathepsin B, percentage in parentheses (Cathepsine B)","IC50 µM Cathepsin K, percentage in parentheses (Cathepsine K)","IC50 µM Papain, percentage in parentheses (Papain)"
C=CCOC(=O)CC[C@H](NC(=O)[C@@H]1CCCN2C(=O)CC[C@H](NC(=O)Nc3ccc(Oc4ccccc4)cc3)C(=O)N12)C(=O)COC(=O)CCCC(=O)OC,,35%,18%)
C=CCOC(=O)CC[C@H](NC(=O)[C@@H]1CCCN2C(=O)CC[C@H](NC(=O)Nc3ccc(Oc4ccccc4)cc3)C(=O)N12)C(=O)CN1CCC(Cc2ccccc2)CC1,25%,,20(20%)
